{
  "source": "patent US20030109503A1",
  "about": "“Pharmaceutical formulations comprising clavulanic acid alone or in combination with other beta-lactam antibiotics” (SmithKline Beecham p.l.c., priority 1995, published 2003)",
  "details": "lungs of rats treated with amoxycillin alone or with clavulanate",
  "data": [
    {"compound": "CC1(C)S[C@@H]2[C@H](NC(=O)[C@H](N)c3ccc(O)cc3)C(=O)N2[C@H]1C(=O)O", "note": "[Amoxycillin, amoxycillin]", "values": [
      {"measurement": "loss of active amoxycillin in the site of infection", "value": "no loss of active amoxycillin was detected"}
    ]}
  ]
}
